Experimental data from paper PMC13070491, “Single-nucleus transcriptomics, pharmacokinetics, and pharmacodynamics of CDK4/6 and mTOR inhibition in a Phase 0/1 trial of recurrent high-grade glioma” (Neuro-Oncology, 2025).

Test system: GB126, GB239 and GB86 patient-derived cell lines
Assay: In vitro single-cell RNA sequencing, analyses across the cell lines (pseudobulk differential gene expression, GSEA, non-cycling cells)
Assay type: cell-based, human
Protocol: Patient-derived glioma stem cell lines (GSCs; GB126, GB86, and GB239) were established from resected GBM tumor tissue. Cell lines were genetically profiled for mutations and copy number aberrations using the IvySeq custom gene panel. […] GB239 was derived from a tumor sample included in this Phase 0 trial (tumor sample: 100-0039). All human GSCs were cultured as described previously.[12]
Following the fifth day of drug exposure, cells were harvested, cryopreserved to be processed at a later point, or immediately processed for single-cell RNA sequencing (10x Genomics, 3’ version 3). The single-cell RNA sequencing data were then processed via cellranger count and Seurat. Briefly, cells were filtered out based on the following criteria: minimum number of genes detected >500 and <10 000 with a maximum percentage of mitochondrial genes set to 10%. Statistical assessment was made between the malignant proportions of each cell state using a 2-sided paired t-test.
Descriptive statistics of the clinical data are included in Table 1. Comparisons between groups were conducted using a 2-sided or paired 2-sided t-test, where indicated. P < .05 was considered significant. Multiple hypothesis test corrections (ie, false discovery rate correction) were applied for snRNAseq pseudobulk differential expression analysis.

[1] = ribociclib versus control (DMSO)

With `CN(C)C(=O)c1cc2cnc(Nc3ccc(N4CCNCC4)cn3)nc2n1C1CCCC1` [ribo] as the molecule, how does the log2FoldChange (feature ABCB11, ribociclib versus control (DMSO)) read?
Its log2FoldChange is 1.044.

And the log2FoldChange (feature AC003659.1, ribociclib versus control (DMSO))?
Its log2FoldChange is 1.0757.

What about the log2FoldChange (feature AC007391.3, ribociclib versus control (DMSO)) of the same molecule?
Its log2FoldChange is 1.025.

And the log2FoldChange (feature AC008551.1, ribociclib versus control (DMSO))?
Its log2FoldChange is 1.025.

And the log2FoldChange (feature AC009975.1, ribociclib versus control (DMSO))?
Its log2FoldChange is 1.119.

What about the log2FoldChange (feature AC016642.1, ribociclib versus control (DMSO)) of the same molecule?
The log2FoldChange was 1.119.

And the log2FoldChange (feature AC018643.1, ribociclib versus control (DMSO))?
Its log2FoldChange is 1.076.

What about the log2FoldChange (feature AC022431.1, ribociclib versus control (DMSO)) of the same molecule?
The log2FoldChange was 1.234.

What about the log2FoldChange (feature AC093879.1, ribociclib versus control (DMSO)) of the same molecule?
The log2FoldChange was 1.0437.

And the log2FoldChange (feature AC093912.1, ribociclib versus control (DMSO))?
The log2FoldChange was 1.217.

What about the log2FoldChange (feature AC108053.1, ribociclib versus control (DMSO)) of the same molecule?
Its log2FoldChange is 1.175.

What about the log2FoldChange (feature ADH6, ribociclib versus control (DMSO)) of the same molecule?
Its log2FoldChange is 1.0252.

And the log2FoldChange (feature AF127577.3, ribociclib versus control (DMSO))?
Its log2FoldChange is 1.0263.

What about the log2FoldChange (feature AL121894.1, ribociclib versus control (DMSO)) of the same molecule?
Its log2FoldChange is 1.234.

And the log2FoldChange (feature BCO1, ribociclib versus control (DMSO))?
Its log2FoldChange is 1.0253.

What about the log2FoldChange (feature BOLL, ribociclib versus control (DMSO)) of the same molecule?
The log2FoldChange was 1.119.

And the log2FoldChange (feature CCDC26, ribociclib versus control (DMSO))?
The log2FoldChange was 1.101.

And the log2FoldChange (feature CPA4, ribociclib versus control (DMSO))?
The log2FoldChange was 1.025.

And the log2FoldChange (feature CPB1, ribociclib versus control (DMSO))?
The log2FoldChange was 1.315.

What about the log2FoldChange (feature GGT5, ribociclib versus control (DMSO)) of the same molecule?
Its log2FoldChange is 1.119.

What about the log2FoldChange (feature HP, ribociclib versus control (DMSO)) of the same molecule?
The log2FoldChange was 1.025.

And the log2FoldChange (feature IGFBP7-AS1, ribociclib versus control (DMSO))?
Its log2FoldChange is 1.026.

And the log2FoldChange (feature IKBKE, ribociclib versus control (DMSO))?
Its log2FoldChange is 1.228.

What about the log2FoldChange (feature LINC00545, ribociclib versus control (DMSO)) of the same molecule?
Its log2FoldChange is 1.097.

And the log2FoldChange (feature LINC02574, ribociclib versus control (DMSO))?
The log2FoldChange was 1.315.

What about the log2FoldChange (feature MCTP2, ribociclib versus control (DMSO)) of the same molecule?
Its log2FoldChange is 1.101.

And the log2FoldChange (feature NAALADL2-AS3, ribociclib versus control (DMSO))?
The log2FoldChange was 1.138.

What about the log2FoldChange (feature PCDHB8, ribociclib versus control (DMSO)) of the same molecule?
Its log2FoldChange is 1.026.

And the log2FoldChange (feature POU5F1B, ribociclib versus control (DMSO))?
Its log2FoldChange is 1.1812.

What about the log2FoldChange (feature S100B, ribociclib versus control (DMSO)) of the same molecule?
Its log2FoldChange is 1.035.

And the log2FoldChange (feature SLC22A1, ribociclib versus control (DMSO))?
The log2FoldChange was 1.1427.

And the log2FoldChange (feature SLC25A34-AS1, ribociclib versus control (DMSO))?
Its log2FoldChange is 1.035.

And the log2FoldChange (feature TNFSF4, ribociclib versus control (DMSO))?
Its log2FoldChange is 1.076.

What about the log2FoldChange (feature TNN, ribociclib versus control (DMSO)) of the same molecule?
Its log2FoldChange is 1.048.

And the “log2FoldChange AC007728.2” value (gene AC007728.2, ribociclib versus control (DMSO))?
The value was 1.44.

And the log2FoldChange (gene AC011498.3, ribociclib versus control (DMSO))?
Its log2FoldChange is -1.005.

And the log2FoldChange (gene AC012213.1, ribociclib versus control (DMSO))?
The log2FoldChange was -1.2171.

What about the “log2FoldChange AC018616.1” value (gene AC018616.1, ribociclib versus control (DMSO)) of the same molecule?
The value was 2.252.

What about the log2FoldChange (gene AC233280.1, ribociclib versus control (DMSO)) of the same molecule?
Its log2FoldChange is -1.005.

And the log2FoldChange (gene ADH4, ribociclib versus control (DMSO))?
Its log2FoldChange is 1.005.

What about the log2FoldChange (gene AL359399.1, ribociclib versus control (DMSO)) of the same molecule?
Its log2FoldChange is -1.234.

What about the log2FoldChange (gene ATAD5, ribociclib versus control (DMSO)) of the same molecule?
The log2FoldChange was -1.025.

And the log2FoldChange (gene BARD1, ribociclib versus control (DMSO))?
Its log2FoldChange is -1.097.

What about the “log2FoldChange CASC9” value (gene CASC9, ribociclib versus control (DMSO)) of the same molecule?
Its value is 1.37.

What about the log2FoldChange (gene CBX2, ribociclib versus control (DMSO)) of the same molecule?
Its log2FoldChange is -1.025.

What about the log2FoldChange (gene CENPN, ribociclib versus control (DMSO)) of the same molecule?
Its log2FoldChange is -1.657.

And the log2FoldChange (gene CIP2A, ribociclib versus control (DMSO))?
The log2FoldChange was -1.217.

What about the log2FoldChange (gene DTYMK, ribociclib versus control (DMSO)) of the same molecule?
The log2FoldChange was -1.076.

What about the log2FoldChange (gene EBF2, ribociclib versus control (DMSO)) of the same molecule?
The log2FoldChange was -1.005.

What about the log2FoldChange (gene FBXO43, ribociclib versus control (DMSO)) of the same molecule?
The log2FoldChange was -1.217.

What about the “log2FoldChange FSIP2-AS2” value (gene FSIP2-AS2, ribociclib versus control (DMSO)) of the same molecule?
The value was 1.502.

What about the log2FoldChange (gene HIST1H2BJ, ribociclib versus control (DMSO)) of the same molecule?
The log2FoldChange was -1.005.

And the log2FoldChange (gene HIST1H4E, ribociclib versus control (DMSO))?
The log2FoldChange was -1.005.

What about the “log2FoldChange LINC01478” value (gene LINC01478, ribociclib versus control (DMSO)) of the same molecule?
The value was 1.617.

What about the “log2FoldChange LINC02149” value (gene LINC02149, ribociclib versus control (DMSO)) of the same molecule?
The value was 1.376.

And the log2FoldChange (gene MCIDAS, ribociclib versus control (DMSO))?
The log2FoldChange was -1.37.

What about the log2FoldChange (gene PCDH9-AS4, ribociclib versus control (DMSO)) of the same molecule?
Its log2FoldChange is 1.005.

What about the log2FoldChange (gene RANBP1, ribociclib versus control (DMSO)) of the same molecule?
Its log2FoldChange is -1.143.

What about the log2FoldChange (gene S100A16, ribociclib versus control (DMSO)) of the same molecule?
The log2FoldChange was 1.005.

And the log2FoldChange (gene SCARA3, ribociclib versus control (DMSO))?
Its log2FoldChange is -1.377.

What about the log2FoldChange (gene SCG5, ribociclib versus control (DMSO)) of the same molecule?
Its log2FoldChange is -1.1193.

What about the “log2FoldChange SH3RF3-AS1” value (gene SH3RF3-AS1, ribociclib versus control (DMSO)) of the same molecule?
The value was 1.502.

And the log2FoldChange (gene SLC9A9-AS1, ribociclib versus control (DMSO))?
Its log2FoldChange is 1.001.

And the log2FoldChange (gene TUBB, ribociclib versus control (DMSO))?
The log2FoldChange was -1.076.

What about the “log2FoldChange Z85996.2” value (gene Z85996.2, ribociclib versus control (DMSO)) of the same molecule?
Its value is 1.718.

What about the log2FoldChange (gene Z93241.1, ribociclib versus control (DMSO)) of the same molecule?
Its log2FoldChange is -1.0046.

And the “log2FoldChange, feature CENPA” value [1]?
The value was -1.993.

What about the “log2FoldChange, feature CLSPN” value [1] of the same molecule?
Its value is -2.2433.

And the “log2FoldChange, feature HIST1H1T” value [1]?
The value was -3.682.

And the “log2FoldChange, feature NUF2” value [1]?
The value was -2.374.

And the “log2FoldChange, feature SKA3” value [1]?
The value was -2.852.
